Values quoted from earlier work as cited in patent publication US11951146B2, “Stimulation of NK cell activity by using a combination of broccoli, Nigella Sativa, Green Tea, and pterostilbene alone and together with metformin” (Therapeutic Solutions International, Inc., priority 2020, dated 2024).

Assays:
LPS-induced ARDS = conditions: EGCG 10 mg/kg ip 1 h before LPS 10 mg/kg ip
experimental colitis = conditions: 50 and 100 mg/kg/day EGCG vs MD group
[1] = test system: lipopolysaccharide-activated macrophages; conditions: EGCG 5 and 10 microM for 6-24 hr, vs without EGCG

In the case of epigallocatechin-3-gallate [EGCG], the “LPS-induced ARDS (blood gases, histological lesions, wet-to-dry weight ratios, MPO activity)” value (LPS-induced ARDS) is listed as “attenuated”, the “disease activity index (DAI) and spleen index (SI)” value (experimental colitis) is listed as “decreased” and the “iNOS activity in soluble extracts” value [1] is listed as “significantly lower”.
